Results: paper PMC11671014, “A potent and selective reaction hijacking inhibitor of Plasmodium falciparum tyrosine tRNA synthetase exhibits single dose oral efficacy in vivo” (PLOS Pathogens, 2024)

Experiments:
[1] = target: T1, SAE (SUMO-activating enzyme) (Homo sapiens, UniProt Q9UBT2); settings: read-out: SAE IC50 HTRF; ref [16]; cited from earlier work
T1 sequence (Q9UBT2 1-640): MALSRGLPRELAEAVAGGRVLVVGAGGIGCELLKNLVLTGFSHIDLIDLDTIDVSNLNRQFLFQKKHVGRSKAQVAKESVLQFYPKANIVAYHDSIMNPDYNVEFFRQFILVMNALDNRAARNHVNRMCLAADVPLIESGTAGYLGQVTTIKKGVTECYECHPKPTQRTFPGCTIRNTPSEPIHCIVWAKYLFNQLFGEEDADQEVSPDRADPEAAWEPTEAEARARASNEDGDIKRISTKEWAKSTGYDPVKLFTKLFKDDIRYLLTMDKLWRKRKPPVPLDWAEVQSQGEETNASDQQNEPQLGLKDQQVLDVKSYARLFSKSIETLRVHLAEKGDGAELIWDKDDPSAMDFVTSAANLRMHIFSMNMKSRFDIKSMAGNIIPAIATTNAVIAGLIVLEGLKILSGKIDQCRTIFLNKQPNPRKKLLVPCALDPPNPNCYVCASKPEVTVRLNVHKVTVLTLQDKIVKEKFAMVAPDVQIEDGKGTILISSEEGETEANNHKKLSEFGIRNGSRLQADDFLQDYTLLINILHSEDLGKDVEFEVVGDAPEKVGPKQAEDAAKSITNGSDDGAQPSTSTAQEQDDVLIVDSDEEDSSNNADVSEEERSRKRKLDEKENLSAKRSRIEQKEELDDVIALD
T1 sequence (Q9UBE0 1-346 partner): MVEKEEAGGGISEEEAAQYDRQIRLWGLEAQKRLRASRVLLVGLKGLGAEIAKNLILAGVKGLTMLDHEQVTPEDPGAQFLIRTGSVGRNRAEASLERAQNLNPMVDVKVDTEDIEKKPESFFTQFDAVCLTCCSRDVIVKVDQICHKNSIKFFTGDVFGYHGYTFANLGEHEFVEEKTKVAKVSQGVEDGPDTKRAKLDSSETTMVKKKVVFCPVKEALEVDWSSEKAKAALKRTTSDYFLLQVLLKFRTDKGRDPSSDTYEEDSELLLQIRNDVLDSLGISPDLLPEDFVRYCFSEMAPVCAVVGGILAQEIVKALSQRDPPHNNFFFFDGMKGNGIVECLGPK

[2] = target: T2, Atg7 (autophagy-related protein-7) (Homo sapiens, UniProt O95352); design: method as in PMID 35653481; settings: read-out: ATG7 IC50 HTRF RH-GABARAP; ref [16]; cited from earlier work
T2 sequence (O95352 1-703): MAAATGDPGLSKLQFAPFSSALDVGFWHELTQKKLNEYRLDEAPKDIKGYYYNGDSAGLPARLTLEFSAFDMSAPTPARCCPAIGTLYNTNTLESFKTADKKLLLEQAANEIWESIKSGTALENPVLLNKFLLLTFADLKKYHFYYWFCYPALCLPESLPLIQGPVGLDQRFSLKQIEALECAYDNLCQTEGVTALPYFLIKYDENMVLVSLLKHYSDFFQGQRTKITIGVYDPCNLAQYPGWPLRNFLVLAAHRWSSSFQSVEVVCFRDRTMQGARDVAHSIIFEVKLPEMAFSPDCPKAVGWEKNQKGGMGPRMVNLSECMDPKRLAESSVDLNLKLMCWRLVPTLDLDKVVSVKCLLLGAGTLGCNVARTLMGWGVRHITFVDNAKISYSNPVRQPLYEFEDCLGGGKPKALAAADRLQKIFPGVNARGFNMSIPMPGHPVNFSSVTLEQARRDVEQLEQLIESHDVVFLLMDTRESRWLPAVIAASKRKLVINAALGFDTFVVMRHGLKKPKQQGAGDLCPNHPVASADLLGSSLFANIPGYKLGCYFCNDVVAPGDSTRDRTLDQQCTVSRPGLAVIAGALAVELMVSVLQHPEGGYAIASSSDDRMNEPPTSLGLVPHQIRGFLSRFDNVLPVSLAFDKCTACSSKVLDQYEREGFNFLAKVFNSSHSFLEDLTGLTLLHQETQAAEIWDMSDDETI

[3] = target: T3, NAE (NEDD8-activating enzyme) (Homo sapiens, UniProt Q8TBC4); settings: read-out: NAE IC50 HTRF; ref [16]; cited from earlier work
T3 sequence (Q8TBC4 1-463): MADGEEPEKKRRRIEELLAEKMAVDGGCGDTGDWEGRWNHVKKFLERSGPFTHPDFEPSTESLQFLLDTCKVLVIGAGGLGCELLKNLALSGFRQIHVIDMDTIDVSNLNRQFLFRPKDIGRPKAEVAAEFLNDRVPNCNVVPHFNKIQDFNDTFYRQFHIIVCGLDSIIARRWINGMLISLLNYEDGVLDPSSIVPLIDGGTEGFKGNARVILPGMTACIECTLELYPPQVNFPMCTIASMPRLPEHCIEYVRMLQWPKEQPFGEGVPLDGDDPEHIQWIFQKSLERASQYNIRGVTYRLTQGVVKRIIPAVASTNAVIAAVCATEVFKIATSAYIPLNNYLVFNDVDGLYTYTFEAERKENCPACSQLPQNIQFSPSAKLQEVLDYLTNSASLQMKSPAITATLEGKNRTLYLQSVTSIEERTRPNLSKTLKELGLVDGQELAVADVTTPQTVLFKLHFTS
T3 sequence (Q13564 1-534 partner): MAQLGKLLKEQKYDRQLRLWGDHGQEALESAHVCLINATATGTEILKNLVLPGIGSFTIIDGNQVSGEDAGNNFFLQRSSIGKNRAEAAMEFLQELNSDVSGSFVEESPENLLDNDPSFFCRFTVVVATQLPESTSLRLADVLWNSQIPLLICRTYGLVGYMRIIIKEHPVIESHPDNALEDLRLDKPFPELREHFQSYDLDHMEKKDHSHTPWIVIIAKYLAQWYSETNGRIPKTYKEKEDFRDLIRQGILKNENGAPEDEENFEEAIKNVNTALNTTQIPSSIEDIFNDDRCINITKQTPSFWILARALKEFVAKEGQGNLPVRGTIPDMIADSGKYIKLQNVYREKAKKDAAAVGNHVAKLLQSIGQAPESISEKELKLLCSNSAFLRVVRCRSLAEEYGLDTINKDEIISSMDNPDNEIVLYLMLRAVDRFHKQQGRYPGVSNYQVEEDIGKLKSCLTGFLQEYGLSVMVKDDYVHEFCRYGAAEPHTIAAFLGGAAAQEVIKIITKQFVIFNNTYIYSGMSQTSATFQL

HsTyrRS = target: T4, HsTyrRS (Homo sapiens, UniProt P54577); experiment: Differential scanning fluorimetry (DSF) of HsTyrRS; format: binding
T4 sequence (P54577 1-528): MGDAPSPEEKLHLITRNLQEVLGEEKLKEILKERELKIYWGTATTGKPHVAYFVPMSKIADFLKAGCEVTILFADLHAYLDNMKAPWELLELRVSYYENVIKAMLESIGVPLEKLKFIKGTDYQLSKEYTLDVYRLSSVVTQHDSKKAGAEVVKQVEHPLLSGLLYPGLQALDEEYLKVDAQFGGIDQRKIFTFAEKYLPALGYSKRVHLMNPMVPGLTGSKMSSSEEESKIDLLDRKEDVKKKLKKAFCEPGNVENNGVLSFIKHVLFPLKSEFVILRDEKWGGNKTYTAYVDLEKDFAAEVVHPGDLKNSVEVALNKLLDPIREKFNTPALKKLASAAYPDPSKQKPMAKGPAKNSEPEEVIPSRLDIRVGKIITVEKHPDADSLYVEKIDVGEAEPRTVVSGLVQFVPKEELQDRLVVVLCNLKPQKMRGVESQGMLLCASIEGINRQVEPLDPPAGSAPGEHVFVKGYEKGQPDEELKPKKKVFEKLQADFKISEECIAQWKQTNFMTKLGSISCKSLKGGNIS
Procedure: The effect on ML471 and analogues on the thermal stability of TyrRS enzymes was assayed as previously described. […] SYPRO Orange (Sigma-Aldrich; 5,000X concentrate in DMSO) was added to the reaction mixture at a final concentration of 5X. 25 μL of the sample was added into each well of a 96-well qPCR plate (Applied Biosystems). The plate was sealed and analysed using StepOnePlus Real-Time PCR system (Applied Biosystems). The samples were heated from 20°C to 90°C with a 1% continuous gradient. The thermal unfolding curve was plotted as the first derivative curve of the raw fluorescence values. The melting temperature (Tm), defined as the peak of the first derivative curve, was used to assess the thermal stability of protein-ligand complexes.

[4] = target: T5, UAE (ubiquitin activating enzyme) (Homo sapiens, UniProt P22314); settings: read-out: UAE IC50 HTRF; ref [16]; cited from earlier work
T5 sequence (P22314 1-1058): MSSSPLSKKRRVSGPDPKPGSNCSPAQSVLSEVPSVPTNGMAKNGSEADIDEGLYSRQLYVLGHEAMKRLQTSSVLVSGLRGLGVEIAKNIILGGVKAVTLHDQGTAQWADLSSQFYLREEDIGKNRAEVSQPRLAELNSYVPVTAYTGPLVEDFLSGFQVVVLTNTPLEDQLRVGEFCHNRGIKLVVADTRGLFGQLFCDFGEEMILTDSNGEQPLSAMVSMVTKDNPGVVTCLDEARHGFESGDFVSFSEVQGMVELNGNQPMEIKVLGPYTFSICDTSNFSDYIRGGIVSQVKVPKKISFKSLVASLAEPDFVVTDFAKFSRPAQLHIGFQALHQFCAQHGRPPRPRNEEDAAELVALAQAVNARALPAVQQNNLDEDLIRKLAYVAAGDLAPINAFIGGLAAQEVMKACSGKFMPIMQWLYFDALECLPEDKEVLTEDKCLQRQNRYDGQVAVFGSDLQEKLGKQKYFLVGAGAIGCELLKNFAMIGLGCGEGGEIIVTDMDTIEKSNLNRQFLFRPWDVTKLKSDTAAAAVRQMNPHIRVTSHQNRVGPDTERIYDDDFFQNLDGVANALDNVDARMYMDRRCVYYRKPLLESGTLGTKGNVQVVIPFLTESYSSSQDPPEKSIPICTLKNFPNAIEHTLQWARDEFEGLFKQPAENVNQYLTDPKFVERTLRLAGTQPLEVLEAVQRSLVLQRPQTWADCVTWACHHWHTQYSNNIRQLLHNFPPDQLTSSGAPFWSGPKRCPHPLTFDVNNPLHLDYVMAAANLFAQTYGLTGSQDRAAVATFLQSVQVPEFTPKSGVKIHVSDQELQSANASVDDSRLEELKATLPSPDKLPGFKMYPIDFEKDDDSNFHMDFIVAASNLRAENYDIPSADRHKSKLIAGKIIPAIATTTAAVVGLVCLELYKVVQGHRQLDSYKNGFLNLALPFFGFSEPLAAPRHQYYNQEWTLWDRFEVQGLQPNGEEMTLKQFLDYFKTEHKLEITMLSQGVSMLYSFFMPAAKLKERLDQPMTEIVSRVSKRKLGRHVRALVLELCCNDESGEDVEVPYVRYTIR

## Nc1ncnc2c1ncn2[C@@H]1O[C@H](COS(N)(=O)=O)[C@@H](O)[C@H]1O [AMS, adenosine 5’-monosulfamate, reference compound]
[1]
  IC50: 6 ± 2 nM
[2]
  IC50: 410000 ± 20000 nM
[3]
  IC50: 6 ± 1 nM
HsTyrRS; 200 μM sulfamate, ATP, tyrosine, yeast tRNA, 37°C 4 h
  HsTyrRS binding (DSF) Delta Tm: 9.1 ± 0.1 °C
HsTyrRS; estimated from DSF with an irreversible thermal unfolding model, read-out: HsTyrRS binding (DSF) apparent KD
  Kd: 8 nM
HsTyrRS; with all substrates
  thermal stabilisation of recombinant HsTyrRS (in words): substantial thermal stabilization
HsTyrRS; with sulfamate, ATP, tyrosine and tRNA, apo 49.0 ± 0.2
  HsTyrRS Tm: 58.2 ± 0.3 °C
[4]
  IC50: 6 ± 3 nM
